Experimental findings from patent publication US20070148124A1, “Cellulose and acrylic based polymers and the use thereof for the treatment of infectious diseases” (priority 2004, published 2007) are described below.

The test system of data set [1] is HSV1.
The subject of data set [2] is VZV.
Data set [3] concerns HSV2.
Data set [4] deals with HHV-6B.
The subject of data set [5] is RSV A (A2).
Data set [6] concerns PIV.
Data set [7] concerns HHV-6A.
For data set [8], the system named is Punta Toro-Adames.

As for “hydroxypropyl methylcellulose trimellitate [HPMCT]”, the “Therapeutic Index (CC50/IC50)” value was above 133 in data set [1]; 0 in data set [2]; above 80 in data set [3]; 4 in data set [4]; above 100 in data set [5]; 1 in data set [6]. Further, the “Therapeutic Index (CC50/IC50)” value in data set [7] was found to be 35.
With poly styrene alt maleic acid [PSMA], in data set [8], the “Therapeutic Index (CC50/IC50)” value is listed as above 100.
